Experimental data reported in paper PMC8158687, “Xanthones Active against Multidrug Resistance and Virulence Mechanisms of Bacteria” (Antibiotics, 2021).

Tested on: S. aureus 272123
Test: Efflux pump inhibition assay (real-time ethidium bromide accumulation)
Type: cell-based, Staphylococcus aureus
Conditions: compound 50 µM, EB 1 µg/mL, minute 60
Experimental: Compounds 1–20 were assessed for their capability of modulating ethidium bromide (EB) accumulation on two resistant strains. […] However, norA is a core gene of the S. aureus as a species, which means that the NorA pump occurs in all S. aureus strains.
Salmonella enterica serovar Typhimurium SE03, was used as a Gram-negative bacterium. This strain has a deletion of the acrA gene, which was predicted with the least affinity for the compounds. The aim of these studies was to perform a first screening of these compounds and their ability to modulate the efflux of EB. […] The relative fluorescence index (RFI) was calculated based on the means of relative fluorescence units, depicted in Table 2.
Compounds 1–20 were evaluated for their ability to inhibit efflux pumps in SE03 and S. aureus 272123 strains, through the real-time fluorimetry, monitoring the intracellular accumulation of EB, an efflux pump substrate. This was determined by the automated method using a CLARIOstar Plus plate reader (BMG Labtech, Ortenberg, Germany). Reserpine and CCCP were applied at 25 µM as positive controls, and the solvent DMSO was applied at 1% v/v. […] The plates were placed into the CLARIOstar plate reader, and the fluorescence was monitored at excitation and emission wavelengths of 530 nm and 600 nm every minute for one hour on a real-time basis. […]

| SMILES | RFI ± SD (relative fluorescence index) |
| --- | --- |
| COc1cccc2oc3ccccc3c(=O)c12 [Compound 11] | −0.10 ± 0.06 ^1 |
| O=c1c2ccccc2oc2cc(O)c(O)cc12 [Compound 2] | −0.69 ± 0.02 ^2 |
